Here are results for 3 compounds from US10266550B2, “Bacterial topoisomerase I inhibitors with antibacterial activity” (The Florida International University Board of Trustees, priority 2016, dated 2019).

Chains of the proteins cited; added tags and fusions are not shown. Lines headed by an entry give the natural chain unless they say otherwise; changes in a name come on top.
UniProt P06612: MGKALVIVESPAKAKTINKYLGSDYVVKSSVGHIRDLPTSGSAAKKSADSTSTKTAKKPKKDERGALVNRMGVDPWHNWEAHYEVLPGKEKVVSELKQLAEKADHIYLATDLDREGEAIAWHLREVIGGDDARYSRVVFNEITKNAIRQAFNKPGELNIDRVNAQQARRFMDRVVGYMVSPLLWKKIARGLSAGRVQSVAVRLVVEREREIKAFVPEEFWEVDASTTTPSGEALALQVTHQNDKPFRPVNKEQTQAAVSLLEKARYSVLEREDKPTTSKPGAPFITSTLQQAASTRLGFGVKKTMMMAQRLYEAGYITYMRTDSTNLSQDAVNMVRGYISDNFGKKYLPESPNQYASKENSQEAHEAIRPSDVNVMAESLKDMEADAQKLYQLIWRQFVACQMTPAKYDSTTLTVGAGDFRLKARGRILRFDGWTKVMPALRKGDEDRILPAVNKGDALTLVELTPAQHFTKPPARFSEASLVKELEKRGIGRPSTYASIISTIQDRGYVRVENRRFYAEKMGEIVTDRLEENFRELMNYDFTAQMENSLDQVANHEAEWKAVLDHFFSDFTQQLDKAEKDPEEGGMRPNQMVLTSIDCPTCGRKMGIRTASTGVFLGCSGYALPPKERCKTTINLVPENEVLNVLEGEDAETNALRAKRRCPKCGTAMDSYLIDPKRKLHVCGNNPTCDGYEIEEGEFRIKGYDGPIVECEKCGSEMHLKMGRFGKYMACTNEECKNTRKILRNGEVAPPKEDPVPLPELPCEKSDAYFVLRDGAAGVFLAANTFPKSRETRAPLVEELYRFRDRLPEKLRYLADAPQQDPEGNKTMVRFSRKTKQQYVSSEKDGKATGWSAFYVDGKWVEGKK
UniProt P11388: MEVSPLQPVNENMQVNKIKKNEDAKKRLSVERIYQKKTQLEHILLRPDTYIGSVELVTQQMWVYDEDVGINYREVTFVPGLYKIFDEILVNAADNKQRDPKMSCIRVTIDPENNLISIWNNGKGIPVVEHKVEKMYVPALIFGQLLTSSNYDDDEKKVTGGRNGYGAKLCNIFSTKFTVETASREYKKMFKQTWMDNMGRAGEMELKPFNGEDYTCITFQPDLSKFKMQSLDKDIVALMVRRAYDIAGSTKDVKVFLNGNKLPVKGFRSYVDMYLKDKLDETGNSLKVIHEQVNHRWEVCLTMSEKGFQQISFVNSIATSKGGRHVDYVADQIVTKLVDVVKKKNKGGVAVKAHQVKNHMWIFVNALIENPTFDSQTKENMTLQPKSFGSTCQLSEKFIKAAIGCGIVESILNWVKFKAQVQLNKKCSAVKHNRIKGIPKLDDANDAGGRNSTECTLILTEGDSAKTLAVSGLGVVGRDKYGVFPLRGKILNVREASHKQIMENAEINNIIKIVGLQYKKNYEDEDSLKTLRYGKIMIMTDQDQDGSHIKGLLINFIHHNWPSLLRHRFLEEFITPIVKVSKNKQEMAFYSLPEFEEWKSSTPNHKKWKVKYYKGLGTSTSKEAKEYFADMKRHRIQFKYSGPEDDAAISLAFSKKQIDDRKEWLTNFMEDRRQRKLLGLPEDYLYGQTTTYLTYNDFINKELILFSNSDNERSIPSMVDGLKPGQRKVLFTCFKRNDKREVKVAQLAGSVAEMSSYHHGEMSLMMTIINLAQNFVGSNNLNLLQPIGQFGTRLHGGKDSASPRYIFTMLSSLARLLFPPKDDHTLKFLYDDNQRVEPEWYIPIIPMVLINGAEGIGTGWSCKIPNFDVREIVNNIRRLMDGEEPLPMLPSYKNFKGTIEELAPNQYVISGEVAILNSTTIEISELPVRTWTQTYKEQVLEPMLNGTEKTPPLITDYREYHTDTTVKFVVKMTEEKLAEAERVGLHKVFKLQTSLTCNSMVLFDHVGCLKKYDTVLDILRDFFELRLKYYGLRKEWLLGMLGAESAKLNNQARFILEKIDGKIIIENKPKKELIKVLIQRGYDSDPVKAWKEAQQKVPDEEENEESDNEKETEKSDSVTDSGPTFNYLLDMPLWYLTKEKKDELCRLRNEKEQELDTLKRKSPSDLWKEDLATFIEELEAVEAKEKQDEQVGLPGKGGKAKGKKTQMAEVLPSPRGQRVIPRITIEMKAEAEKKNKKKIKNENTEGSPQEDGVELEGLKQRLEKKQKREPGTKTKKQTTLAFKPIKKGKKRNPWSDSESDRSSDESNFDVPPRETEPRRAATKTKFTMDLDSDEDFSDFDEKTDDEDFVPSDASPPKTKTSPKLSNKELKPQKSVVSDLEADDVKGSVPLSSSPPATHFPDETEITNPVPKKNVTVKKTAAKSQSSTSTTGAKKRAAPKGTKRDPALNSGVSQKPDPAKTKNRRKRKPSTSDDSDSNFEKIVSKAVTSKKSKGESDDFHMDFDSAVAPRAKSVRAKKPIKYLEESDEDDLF
UniProt P11387: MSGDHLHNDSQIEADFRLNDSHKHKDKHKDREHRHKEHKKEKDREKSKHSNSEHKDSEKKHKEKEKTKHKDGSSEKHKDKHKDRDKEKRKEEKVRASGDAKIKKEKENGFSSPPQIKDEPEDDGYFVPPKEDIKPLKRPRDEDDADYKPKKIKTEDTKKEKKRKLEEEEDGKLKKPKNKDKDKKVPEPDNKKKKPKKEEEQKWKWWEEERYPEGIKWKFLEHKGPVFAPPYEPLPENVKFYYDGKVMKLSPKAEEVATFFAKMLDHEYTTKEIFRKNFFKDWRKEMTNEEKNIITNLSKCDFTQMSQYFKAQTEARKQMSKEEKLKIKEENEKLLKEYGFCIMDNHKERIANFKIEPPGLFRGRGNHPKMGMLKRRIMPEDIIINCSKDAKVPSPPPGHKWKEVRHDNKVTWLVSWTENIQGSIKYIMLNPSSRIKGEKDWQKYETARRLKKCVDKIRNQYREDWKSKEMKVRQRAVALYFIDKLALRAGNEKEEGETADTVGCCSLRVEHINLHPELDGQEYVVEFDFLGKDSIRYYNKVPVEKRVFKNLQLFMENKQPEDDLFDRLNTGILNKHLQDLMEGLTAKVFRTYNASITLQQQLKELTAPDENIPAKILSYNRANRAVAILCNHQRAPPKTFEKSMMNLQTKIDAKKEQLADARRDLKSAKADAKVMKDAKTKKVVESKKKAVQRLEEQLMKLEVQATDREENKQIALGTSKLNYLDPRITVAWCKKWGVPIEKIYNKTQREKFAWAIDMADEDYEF

Type in all cases: biochemical
The target of one test is E. coli topoisomerase I (Escherichia coli (strain K12), UniProt P06612). The settings on record: experimental, converted from IC50. The procedure: (§1) Recombinant E. coli topoisomerase I and gyrase expressed in E. coli were purified as described previously.
E. coli Topoisomerase I Relaxation Activity Inhibition Assay
The relaxation activity of E. coli topoisomerase I was assayed in a buffer containing 10 mM Tris-HCl, pH 8.0, 50 mM NaCl, 0.1 mg/mL gelatin, and 0.5 mM MgCl2. Half microliter from the appropriate stock solutions of compounds dissolved in the solvent (DMSO) or the solvent alone (control) was mixed with 9.5 μL of the reaction buffer containing 10 ng of enzyme before the addition of 10 μL of reaction buffer containing 200 ng of supercoiled pBAD/Thio plasmid DNA purified by cesium chloride gradient as substrate. Following incubation at 37° C. for 30 min, the reactions were terminated by the addition of 4 μL of a stop buffer (50% glycerol, 50 mM EDTA, and 0.5% (v/v) bromophenol blue), and analyzed by agarose gel electrophoresis. The gels were stained in ethidium bromide and photographed under UV light.

For the next test, the target named is Human topoisomerase IIα (Homo sapiens (Human), UniProt P11388). Description: Human topoisomerase IIα decatenation inhibition assay. The settings on record: kDNA decatenation; read-out: Topoisomerase inhibitory activity (IC50) Human topo IIα (type IIA). The procedure:
Human topoisomerase I and topoisomerase IIα were purchased from TopoGen (Buena vista, CO, USA). […] The reactions were then analyzed by electrophoresis in 1% agarose gels containing […] ethidium bromide before being photographed under UV light.

Another test deals with Human topoisomerase I (Homo sapiens (Human), UniProt P11387). As to the kind of experiment: Human topoisomerase I relaxation inhibition assay. The settings on record: read-out: Topoisomerase inhibitory activity (IC50) Human topo I (type IB). As for the experimental part: Human topoisomerase I relaxation assays were carried out with 0.5 U of enzyme in reaction buffer supplied by the manufacturer. The enzyme was mixed with the indicated concentration of compound dissolved before 200 ng of supercoiled pBAD/Thio plasmid DNA was added in the same buffer, for a final volume of 20 μL. Following incubation at 37° C. for 30 minutes, the reactions were terminated with a buffer containing 5% SDS, 0.25% bromophenol blue, and 25% glycerol, and analyzed by agarose gel electrophoresis.
Human topoisomerase I and topoisomerase IIα were purchased from TopoGen (Buena vista, CO, USA).

Another test addresses E. coli DNA gyrase (Escherichia coli (strain K12), UniProt P0AES4+P0AES6). Description: DNA gyrase supercoiling inhibition assay. As to conditions: supercoiling of relaxed DNA; read-out: Topoisomerase inhibitory activity (IC50) E. coli DNA gyrase (type IIA). As for the experimental part:
as §1
DNA gyrase supercoiling assays were carried out by mixing the compounds and the enzyme in a similar manner as above (EcTopI relaxation inhibition assay) but in a gyrase assay buffer (35 mM Tris-HCl, 24 mM KCl, 4 mM MgCl2, 2 mM DTT, 1.75 mM ATP, 5 mM spermidine, 0.1 mg/mL BSA, 6.5% glycerol at pH 7.5), followed by the addition of 300 ng of relaxed covalently closed circular DNA (New England Biolabs, Ipswich, Mass., USA) to a final reaction volume of 20 μL. The samples were incubated at 37° C. for 30 minutes before being terminated by the addition of a buffer containing 5% SDS, 0.25% bromophenol blue, and 25% glycerol. The reactions were then analyzed by agarose gel electrophoresis.

In the case of `Nc1ccc2c(c1)Oc1c(NCCN3CCOCC3)c(F)cc3c(=O)c(C(=O)O)cn-2c13` [Compound 11h, 9-Amino-5-fluoro-6-((2-morpholinoethyl)amino)-3-oxo-3H-pyrido[3,2,1-kl]phenoxazine-2-carboxylic acid], on E. coli topoisomerase I, the “PIC50 (pIC50 = −log IC50)” value is 6.01. The term IC50 denotes the point on the concentration scale where inhibition reaches its midpoint. As to `Nc1ccc2c(c1)Oc1c(N3CC[C@H](N)C3)c(F)cc3c(=O)c(C(=O)O)cn-2c13` [Compound 17a, (S)-9-amino-6-(3-aminopyrrolidin-1-yl)-S-fluoro-3-oxo-3H-pyrido[3,2,1-kl]phenoxazine-2-carboxylic acid], the IC50 is 0.97 to 195 µM at Human topoisomerase IIα and 3.9 µM at Human topoisomerase I. In the case of `Nc1ccc2c(c1)Oc1c(N3CC[C@@H](N)C3)c(F)cc3c(=O)c(C(=O)O)cn-2c13` [Compound 17b, (R)-9-amino-6-(3-aminopyrrolidin-1-yl)-5-fluoro-3-oxo-3H-pyrido[3,2,1-kl]phenoxazine-2-carboxylic acid], the IC50 at Human topoisomerase I and on E. coli DNA gyrase was 3.9 µM in each case.
